# scFv variants of Ab-14 (heavy chain) against a SARS-CoV-2 spike peptide

Target: peptide PDVDLGDISGINAS, taken from heptad repeat 2 (HR2) of SARS-CoV-2 spike.

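The parent was found by panning a naive human phage display library on the peptide. The library (AAYL49) carries one to three amino acid substitutions per variant, with no insertions or deletions. Affinity was read by AlphaSeq, a pooled yeast mating assay with surface-displayed partners. The frequency of each diploid, read from paired DNA barcodes, reflects how well the two displayed proteins bind. Scores were corrected for input abundance and mapped to Kd with protein pairs of known affinity run in the same pool. The assay was run in three technical replicates.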

The variants keep the light chain, the linker and the frameworks of Ab-14 (scFv order VH, the linker GGGGSGGGGSGGGGS, VL).
VH: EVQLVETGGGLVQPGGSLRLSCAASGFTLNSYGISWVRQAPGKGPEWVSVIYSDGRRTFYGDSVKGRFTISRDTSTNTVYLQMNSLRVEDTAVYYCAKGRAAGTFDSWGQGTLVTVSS
VL: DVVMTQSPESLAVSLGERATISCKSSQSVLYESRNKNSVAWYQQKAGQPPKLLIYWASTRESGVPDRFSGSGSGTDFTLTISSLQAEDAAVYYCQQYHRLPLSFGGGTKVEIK

Each variant is given by its three heavy chain CDRs, as the data file delimits them; those of the parent are GFTLNSYGIS, VIYSDGRRTFYGDSVK, GRAAGTFDS. The read-out is the apparent dissociation constant on a log10 scale (nM): the lower, the stronger. Replicates are averaged; those with no signal do not enter the mean. An entry "no signal" has no value in the source: the pair was not observed among the diploids in any replicate. This suggests poor binding but is not conclusive. Empty control strains, which show no peptide, gave a signal in 15% of pairings with library AAYL49; the median was 4.06 and 95% of these signals were weaker than 2.83. No background was subtracted.

log10 Kd (nM), mean	replicates with signal	CDR-H1	CDR-H2	CDR-H3
3.31	3/3	GFTLNVYGIS	VIYSDGRRTFYGDPVK	GRAAGGFDS
4.13	2/3	GFTLNSYPIS	VIMSDGRRTKYGDSVK	GRAAGTFDS
2.15	3/3	GFTLNSYGIS	VIYSDGRRTFYTWSVK	GRAAGTFDS
1.41	3/3	EFTLNSYGIS	VIYSDGRRTFYGDSVK	GRQGGTFDS
no signal	0/3	GFTLNSYGQS	VQYSDGRRTFYGDSVK	MRAAGTFDS
no signal	0/3	GFTLNSYGIS	RIDSDGRRTFYGDSVK	GRAAGTFDS
3.93	2/3	GFTLNSYGIS	VIYSDGRRLFYGDSVK	GRATGTDDS
no signal	0/3	GFTLNSYGIS	VSYSEGRRTFYGDLVK	GRAAGTFDS
4.53	1/3	DFTLNSYGLS	VIYSDGRRYFYGDSVK	GRAAGTFDS
3.86	1/3	GFTLNSYGIS	VLYSDGRRTFYGDSNK	GRAAATFDS
no signal	0/3	GFTLNSYGIS	VTYSDGRRTFYGESVK	GRAAETFDS
no signal	0/3	GFTLNRYGIS	VIYSDGRRTFYPDSVK	GRAAGTFHS
no signal	0/3	GFTFNSYGIS	VIYSDGRDTFYGDSVK	GRAAGVFDS
4.47	1/3	GFTLNSYGIS	VIYSDGRRTMYGDSVK	RRAAGTHDS
no signal	0/3	GFTLNPYGIS	VIYMDGRRTFYGDSVK	GRASGTFDS
no signal	0/3	LFTLNSYGYS	VIYSDGRRTFDGDSVK	GRAAGTFDS
3.05	1/3	GFTLNSYGIS	VIYSDGRRTFVGDHVK	GRWAGTFDS
no signal	0/3	GFTLNSYGIS	YIYSDGRRMFYGDSVK	GRAAPTFDS
5.09	1/3	GFTLNSYGWS	VIYPDGRRTFYGDSVK	GRAVGTFDS
3.08	3/3	GFMLNSHGIS	VIYSDGRRTFYGDSVK	GRFAGTFDS
no signal	0/3	GFTLNSYGIS	VIYSNWRRTFYGDSVK	GRAAGTFDS
no signal	0/3	GFTLNSYGPS	VIYSDGRRTFYGESVK	GRAVGTFDS
3.46	3/3	MFTLNSYGIS	VIYSDGRRVFYGDSVK	GRAAGTFDS
no signal	0/3	GFMLNSYGIS	VIYSDGRHTFYGDSVK	GRAAGPFDS
no signal	0/3	GFTKNSYGTS	VIYSDGRRTFYGDSVH	GRAAGTFDS
4.94	2/3	GFTLNSYGIM	VIYSDGRRDFYGDSVK	GRAAGTFVS
4.21	1/3	YFTLNSYGIS	VIYSDGRRTFYGDSPK	GRAAGGFDS
no signal	0/3	GATLNSYGIS	VIYSPGRRTFYGDSVY	GRAAGTFDS
no signal	0/3	GFTLNSYGIS	VIYSDGRRTLYGDVVK	IRAAGTFDS
3.51	3/3	GFTLNSYGIS	VIYSDGARTFYGDSVK	NRAAGTFDS
1.65	3/3	GFTLNSYGIS	VIYSDGRRTFYGDSVK	ARAKGTFDV
5.04	1/3	VFTLNSYGIS	VIYSDGRRKFEGDSVK	GRAAGTFDS
4.08	1/3	QFTLNSYGII	VIYSDGRETFYGDSVK	GRAAGTFDS
no signal	0/3	GFRLNFYGIS	VIYSFGRRTFYGDSVK	GRAAGTFDS
no signal	0/3	GFTLNSYGIN	VIYGDGRRTFYGDSVK	GRKAGTFDS
no signal	0/3	GFTLNSYGIS	VIYSDHRRTFYGDSVK	GRVAGTFGS
no signal	0/3	GFTLNSYQIS	VIDSDGRRTFYGDSVK	GRAAGTMDS
3.84	3/3	GFTLNSYGIS	VIYYDGRRTFYGDSGK	GRANGTFDS
4.56	3/3	GFTLNSYGIS	VIYSNGRRTFYGDSVK	GRSTGTFDS
3.75	1/3	GFTLISPGIS	VIYSDGERTFYGDSVK	GRAAGTFDS
no signal	0/3	GFTLNSYPIS	VDYSDGRRTFYGDSVK	GRADGTFDS
no signal	0/3	GFTLNSYGIS	VITSDGRRTFYGDSVK	GRAAGTHDG
4.08	1/3	GFTLNSYGIF	RIYSDGRRTFMGDSVK	GRAAGTFDS
3.81	1/3	GFTLNSYGIS	VIYSDGRRTVYGDSVK	GRAAGWFDD
no signal	0/3	GFTLNSYGIS	VIYMDGRRTFGGDSVK	GRAAGKFDS
4.71	3/3	GFTLNSYGIM	VIMSHGRRTFYGDSVK	GRAAGTFDS
no signal	0/3	HFTLNSYGIS	VIYSDGRTTFYGDSVK	GRAAGTFDP
1.61	3/3	GFTLNSYGIS	VIYSDGRRTFYGDSVT	GRMYGTFDS
no signal	0/3	GFTLNSYGIS	VIYSDGRCTFYGDVVK	GRAAGTFDR
1.37	3/3	GFTIQSYGIS	VIYSDGRRTFYIDSVK	GRAAGTFDS
5.48	1/3	GFTLNSYGIS	VIYCDGRRTFYGDSVK	GSAAGTFYS
4.01	2/3	GGTLNSYGIS	VIYSHGRRTFYGDSVK	GRHAGTFDS

The last 4 entries again:

CDR-H1,CDR-H2,CDR-H3,"log10 Kd (nM), mean",replicates with signal
GFTLNSYGIS,VIYSDGRCTFYGDVVK,GRAAGTFDR,no signal,0/3
GFTIQSYGIS,VIYSDGRRTFYIDSVK,GRAAGTFDS,1.37,3/3
GFTLNSYGIS,VIYCDGRRTFYGDSVK,GSAAGTFYS,5.48,1/3
GGTLNSYGIS,VIYSHGRRTFYGDSVK,GRHAGTFDS,4.01,2/3

From the AlphaSeq antibody data of Engelhart et al. 2022 (doi:10.1038/s41597-022-01779-4), copy in the FLAb collection.